Data: ChEMBL document CHEMBL5356978, “Design, synthesis, and biological evaluation of novel 8-substituted quercetin derivatives targeting the β‑catenin/B-cell lymphoma 9 interaction” (Bioorg Med Chem Lett, 2024)

Protein sequences, listed by entry. Tags and fused reporters are not part of them.
UniProt P35222, whole entry: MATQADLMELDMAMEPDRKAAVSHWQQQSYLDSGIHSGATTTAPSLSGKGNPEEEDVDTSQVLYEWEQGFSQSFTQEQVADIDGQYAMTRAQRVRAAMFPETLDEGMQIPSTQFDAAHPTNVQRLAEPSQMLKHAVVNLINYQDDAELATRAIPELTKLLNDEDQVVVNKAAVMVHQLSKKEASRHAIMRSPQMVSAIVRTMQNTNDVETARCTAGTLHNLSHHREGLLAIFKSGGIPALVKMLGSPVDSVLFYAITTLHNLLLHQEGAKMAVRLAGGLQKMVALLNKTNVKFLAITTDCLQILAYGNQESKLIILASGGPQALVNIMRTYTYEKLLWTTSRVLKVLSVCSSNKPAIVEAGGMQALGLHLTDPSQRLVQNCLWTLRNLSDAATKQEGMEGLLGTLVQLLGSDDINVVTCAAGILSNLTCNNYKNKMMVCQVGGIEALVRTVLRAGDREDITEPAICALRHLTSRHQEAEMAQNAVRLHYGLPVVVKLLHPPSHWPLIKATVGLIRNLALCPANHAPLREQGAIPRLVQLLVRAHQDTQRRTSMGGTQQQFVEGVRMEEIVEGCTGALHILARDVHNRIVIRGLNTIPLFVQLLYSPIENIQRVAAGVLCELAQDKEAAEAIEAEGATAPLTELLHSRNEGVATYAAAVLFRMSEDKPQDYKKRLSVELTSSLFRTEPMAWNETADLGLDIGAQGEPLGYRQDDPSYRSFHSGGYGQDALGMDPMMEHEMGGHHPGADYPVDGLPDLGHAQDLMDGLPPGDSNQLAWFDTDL

Molecular target: Catenin beta-1 (Homo sapiens, UniProt P35222)
Assay: Binding affinity to full length beta-catenin (unknown origin) assessed as dissociation constant by SPR analysis

For `O=c1c(O)c(-c2ccc(O)c(O)c2)oc2cc(O)cc(O)c12` [QUERCETIN], the Kd was 4.99 µM.
